# According to PMC3685885 (Toxicology and applied pharmacology, 2013):
# The chains behind the UniProt entries cited, without tags or fusion partners.
# UniProt P35372, whole entry: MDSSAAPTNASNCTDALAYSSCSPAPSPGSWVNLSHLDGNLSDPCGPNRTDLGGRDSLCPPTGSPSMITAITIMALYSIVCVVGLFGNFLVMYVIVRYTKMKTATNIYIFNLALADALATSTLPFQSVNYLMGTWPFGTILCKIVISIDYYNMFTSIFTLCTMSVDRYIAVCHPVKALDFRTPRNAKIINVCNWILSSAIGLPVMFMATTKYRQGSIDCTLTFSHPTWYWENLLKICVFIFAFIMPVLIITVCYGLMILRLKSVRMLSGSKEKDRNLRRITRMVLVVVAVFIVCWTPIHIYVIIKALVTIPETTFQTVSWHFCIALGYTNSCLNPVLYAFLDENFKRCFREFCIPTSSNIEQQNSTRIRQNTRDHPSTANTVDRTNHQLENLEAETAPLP
# Assays:
# [1] = molecular target: T1, human mu-opioid receptors (Homo sapiens, UniProt P35372); format: cell-based
# [2] = molecular target: T1, human mu-opioid receptors; experiment: [35S]GTPγS binding; format: biochemical; conditions: 10 µM
substance,measurement,setting,value
DAMGO [reference compound],Effect on AC-activity / intracellular cAMP in intact CHO-hMOR cells,[1],significantly inhibited AC-activity
same,G-protein activation in CHO-hMOR homogenates,[2],22 ± 3.0 fmol/mg
